Assay results as given in patent publication US12377102B2, “Compounds for the prevention and treatment of medical disorders and uses thereof” (GALECTIN SCIENCES, LLC, priority 2017, dated 2025).

Sequences of proteins named here, by UniProt entry; tags and fusion partners are left off. A change or cut given only in a name is not applied to a line headed by its entry.
UniProt P17931, whole entry: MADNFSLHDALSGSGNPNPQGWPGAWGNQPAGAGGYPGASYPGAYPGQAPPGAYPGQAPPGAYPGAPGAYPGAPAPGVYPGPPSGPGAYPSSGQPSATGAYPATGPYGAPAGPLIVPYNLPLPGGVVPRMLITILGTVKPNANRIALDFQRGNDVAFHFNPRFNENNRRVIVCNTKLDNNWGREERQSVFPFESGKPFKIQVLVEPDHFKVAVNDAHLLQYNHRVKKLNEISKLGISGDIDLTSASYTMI
UniProt O00214: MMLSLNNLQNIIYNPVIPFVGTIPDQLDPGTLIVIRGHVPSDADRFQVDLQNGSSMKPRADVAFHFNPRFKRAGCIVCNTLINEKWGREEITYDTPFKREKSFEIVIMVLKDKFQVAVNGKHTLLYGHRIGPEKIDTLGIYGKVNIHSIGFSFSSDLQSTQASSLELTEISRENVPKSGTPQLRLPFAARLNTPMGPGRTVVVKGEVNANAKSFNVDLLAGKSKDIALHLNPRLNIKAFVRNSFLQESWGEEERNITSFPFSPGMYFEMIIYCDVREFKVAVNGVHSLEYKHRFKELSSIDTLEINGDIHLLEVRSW

Experiments:
recombinant human Gal-3 = target: T1, recombinant human Gal-3 (Homo sapiens, UniProt P17931); assay: 1H-15N HSQC NMR shifts of 15N-labeled Gal-3 on compound addition; type: binding; settings: C-terminal CRD S-face (Amino-acids 114-245)
T1 construct: shifts of whole molecule of Gal-3 (Gal-3 FL); made in house; host or cells: E. coli BL21 (DE3)
Procedure: Heteronuclear ^15N NMR spectroscopy was used to evaluate the interaction of compounds described herein with galectin molecules, including but not limited to Gal-3, to assess the interaction residues on the Gal-3 molecule.
NMR experiments were carried out at 30° C. on Bruker 600 MHz, 700 MHz or 850 MHz spectrometers equipped with H/C/N triple-resonance probes and x/y/z triple-axis pulse field gradient units. […] Raw data were converted and processed by using NMRPipe and were analyzed by using NMRview.

[1] = target: galectin 8 interaction with integrin αMβ2 (Homo sapiens, UniProt O00214); settings: ELISA, FIG. 8E
Source text: Activated ELISA plate is coated with αMβ2 integrin. Gal-3 binding is monitored with anti-Gal-3 antibody conjugated with FITC. Positive signal of FITC represent no inhibition while reduced signal indicate inhibition.

OC[C@H]1O[C@@H](S[C@@H]2O[C@H](CO)[C@H](O)[C@H](n3cc(-c4cccc(F)c4)nn3)[C@H]2O)[C@H](O)[C@@H](n2cc(-c3cccc(F)c3)nn2)[C@H]1O [TD-139]
Max 15N NMR shift (recombinant human Gal-3): 0.4 ppm | inhibition of galectin 8 interaction with integrin αMβ2 [1]: inhibited
